Experimental data as given in publication PMC5294771, “Antidiabetic effects of Brucea javanica seeds in type 2 diabetic rats” (BMC Complementary and Alternative Medicine, 2017).

Target: T1, glycogen phosphorylase α (GP-α) (Oryctolagus cuniculus, UniProt P00489)
T1 sequence (P00489 2-843 limits assumed): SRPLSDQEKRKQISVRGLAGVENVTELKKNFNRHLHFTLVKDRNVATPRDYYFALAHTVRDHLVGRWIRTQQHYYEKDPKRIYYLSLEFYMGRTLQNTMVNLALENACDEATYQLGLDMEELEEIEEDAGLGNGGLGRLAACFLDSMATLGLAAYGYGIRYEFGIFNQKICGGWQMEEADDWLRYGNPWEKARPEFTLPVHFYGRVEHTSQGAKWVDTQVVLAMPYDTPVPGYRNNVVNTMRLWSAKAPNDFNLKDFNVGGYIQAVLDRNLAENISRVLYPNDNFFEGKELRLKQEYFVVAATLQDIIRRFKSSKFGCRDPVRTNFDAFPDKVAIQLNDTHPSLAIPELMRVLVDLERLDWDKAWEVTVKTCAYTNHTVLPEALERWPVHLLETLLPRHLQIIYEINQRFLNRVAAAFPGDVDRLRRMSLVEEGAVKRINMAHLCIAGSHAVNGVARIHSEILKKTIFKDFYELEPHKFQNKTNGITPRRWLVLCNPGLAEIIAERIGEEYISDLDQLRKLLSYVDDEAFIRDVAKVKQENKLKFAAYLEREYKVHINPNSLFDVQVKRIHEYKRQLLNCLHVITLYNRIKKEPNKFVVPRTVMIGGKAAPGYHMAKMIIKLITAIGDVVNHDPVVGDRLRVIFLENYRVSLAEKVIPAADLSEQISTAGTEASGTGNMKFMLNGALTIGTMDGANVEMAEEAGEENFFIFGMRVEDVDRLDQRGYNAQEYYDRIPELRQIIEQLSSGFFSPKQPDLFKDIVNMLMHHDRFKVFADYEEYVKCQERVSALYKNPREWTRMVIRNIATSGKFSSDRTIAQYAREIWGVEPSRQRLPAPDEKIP
Assay: GP-α inhibition assay
Assay type: biochemical
Conditions: at 5 mM

For `CC1=CC(=O)[C@@H](O)[C@]2(C)[C@H]3[C@@H](O)[C@H](O)[C@]4(C)OC[C@@]35[C@@H](C[C@@H]12)OC(=O)[C@H](O)[C@]54O` [Compound 2, bruceine D], the “inhibitory activity against GP-α” value was 19.88%.
